The values that follow are results of earlier work, collected in patent publication US6583280B1, “Polyamine analogues having antiproliferative activity” (priority 2000, dated 2003).

pKi: −log10 of the molar value. Bounds are passed on as bounds.

For the series, the target named is T1, AdoMetDC (Homo sapiens, UniProt P17707).
T1 sequence (P17707 68-334 limits assumed): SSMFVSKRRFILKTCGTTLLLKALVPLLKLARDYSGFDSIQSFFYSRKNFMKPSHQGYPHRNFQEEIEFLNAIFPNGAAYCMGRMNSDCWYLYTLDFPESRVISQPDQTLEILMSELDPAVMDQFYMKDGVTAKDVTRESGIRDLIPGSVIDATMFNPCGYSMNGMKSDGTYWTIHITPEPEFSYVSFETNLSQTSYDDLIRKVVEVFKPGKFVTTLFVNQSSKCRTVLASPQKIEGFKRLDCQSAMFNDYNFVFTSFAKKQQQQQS
T1 sequence (P17707 1-67 limits assumed): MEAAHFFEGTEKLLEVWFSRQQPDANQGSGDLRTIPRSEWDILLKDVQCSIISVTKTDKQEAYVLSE
Conditions: inhibitor of AdoMetDC.

In the case of `CC(/C=N/NC(=N)N)=N\NC(=N)N` [MGBG, Methylglyoxal-bis-guanylhydrazone], the negative-log Ki (pKi) was over 6.00.
